Literature values, collected in Sander's compilation of Henry's law constants (doi:10.1021/cr60306a003).

Experiment: Henry solubility constant Hcp at 298.15 K (mol/(m3 Pa))
Settings: reference: Wilhelm et al. (1977); cited value

CCl [chloromethane]
Henry solubility constant Hcp: 0.001
